# Data: ChEMBL document CHEMBL2151016, “Synthesis and in vitro antiproliferative activity of new 11-aminoalkylamino-substituted chromeno[2,3-b]indoles” (Eur J Med Chem, 2012)
# System: Nucleic Acid
# Assay: Binding affinity to salmon fish sperm DNA by UV-vis spectrophotometric analysis
# Format: nucleic-acid assay
# Conditions: Salmonidae
structure (smiles),measurement,value
COc1ccc2oc3nc4ccccc4c-3c(NCCCN)c2c1,K,2.79 ×10⁴ L/mol
